The text below walks through data of paper PMC10809502, “Application of a new MDCKII-MDR1 cell model to measure the extent of drug distribution in vitro at equilibrium for prediction of in vivo unbound brain-to-plasma drug distribution” (Fluids and Barriers of the CNS, 2024).

This series relates to MDCKII-cells transfected with the human P-gp-transporter (hMDR1). The note with it: from efflux ratio.

Turning to `O=C1CC2(CCCC2)CC(=O)N1CCCCN1CCN(c2ncccn2)CC1` [Buspirone, buspirone], the “Human P-gp substrate classification” value was “Unlikely (unlikely substrates: ER < 1.5)”.
